Data reported in patent publication US12286424B2, “Small molecule inhibitors of galectin-3” (BRISTOL-MYERS SQUIBB COMPANY, priority 2020, dated 2025).

Protein sequences, listed by entry. Tags and fused reporters are not part of them.
UniProt P17931, whole entry: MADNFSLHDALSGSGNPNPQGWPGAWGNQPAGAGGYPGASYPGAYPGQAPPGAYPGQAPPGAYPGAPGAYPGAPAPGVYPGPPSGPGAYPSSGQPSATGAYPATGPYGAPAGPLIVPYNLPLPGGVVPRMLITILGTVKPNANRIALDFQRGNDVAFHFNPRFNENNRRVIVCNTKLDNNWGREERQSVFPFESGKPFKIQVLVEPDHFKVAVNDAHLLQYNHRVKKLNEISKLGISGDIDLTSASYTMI

Target: hGalectin-3 (Homo sapiens, UniProt P17931)
Test: Gal-3 ELISA assay (hGalectin-3 neutralization binding to asialofetuin)
Details: read-out: hGal3 IC50; biotin-tagged hGalectin-3 15 nM, ASF-coated plate

O=C([C@@H]1O[C@H](CO)[C@H](O)[C@H](n2cc(-c3cccc(F)c3)nn2)[C@H]1O)N1CCN(c2ccc3[nH]c(=O)oc3c2)CC1
IC50: 490 nM
